Tests used:
Assay in all cases: Kinase Profiling Assay
Assay type in all cases: biochemical
Conditions in all cases: peptide 100 μM
TAO3(h) = target: T1, TAO3(h) (Homo sapiens, UniProt Q9H2K8)
T1 construct: purchased Millipore
T1 sequence (Q9H2K8 1-898): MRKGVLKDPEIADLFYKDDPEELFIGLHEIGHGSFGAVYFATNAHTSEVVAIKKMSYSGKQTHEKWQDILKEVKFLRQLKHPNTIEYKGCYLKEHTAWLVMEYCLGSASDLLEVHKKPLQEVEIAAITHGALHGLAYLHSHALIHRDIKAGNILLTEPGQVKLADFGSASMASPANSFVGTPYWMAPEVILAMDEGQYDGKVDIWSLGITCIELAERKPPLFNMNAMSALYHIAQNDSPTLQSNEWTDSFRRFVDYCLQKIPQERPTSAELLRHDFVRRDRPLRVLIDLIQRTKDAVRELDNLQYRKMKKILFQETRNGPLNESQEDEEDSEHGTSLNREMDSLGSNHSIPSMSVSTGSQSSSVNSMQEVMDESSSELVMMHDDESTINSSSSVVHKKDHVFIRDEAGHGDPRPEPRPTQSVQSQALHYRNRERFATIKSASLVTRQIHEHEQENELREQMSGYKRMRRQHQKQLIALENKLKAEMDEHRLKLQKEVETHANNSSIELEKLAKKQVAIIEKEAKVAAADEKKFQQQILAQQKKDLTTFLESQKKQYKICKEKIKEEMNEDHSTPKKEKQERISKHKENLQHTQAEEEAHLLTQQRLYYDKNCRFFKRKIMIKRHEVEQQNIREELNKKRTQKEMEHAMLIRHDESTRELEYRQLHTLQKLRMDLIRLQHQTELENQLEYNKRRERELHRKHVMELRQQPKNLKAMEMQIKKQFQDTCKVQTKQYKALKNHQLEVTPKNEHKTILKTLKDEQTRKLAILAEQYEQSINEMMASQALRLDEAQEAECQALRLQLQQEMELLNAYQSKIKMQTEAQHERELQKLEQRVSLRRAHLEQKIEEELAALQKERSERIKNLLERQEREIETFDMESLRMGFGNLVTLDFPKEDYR
Outline: (§1)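 Measured twice per kinase, activity in presence of MK2 inhibitory peptide was calculated against a 100% activity control after radiometric phosphorylation of a cationic substrate, anionic filter capture and scintillation counting; one of 266 human kinases profiled for specificity.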

The chains behind the UniProt entries cited, without tags or fusion partners. Where a name states a change or a piece, a line headed by the entry shows the natural chain unless it says otherwise. Residues count along the entry.
UniProt Q8TDX7: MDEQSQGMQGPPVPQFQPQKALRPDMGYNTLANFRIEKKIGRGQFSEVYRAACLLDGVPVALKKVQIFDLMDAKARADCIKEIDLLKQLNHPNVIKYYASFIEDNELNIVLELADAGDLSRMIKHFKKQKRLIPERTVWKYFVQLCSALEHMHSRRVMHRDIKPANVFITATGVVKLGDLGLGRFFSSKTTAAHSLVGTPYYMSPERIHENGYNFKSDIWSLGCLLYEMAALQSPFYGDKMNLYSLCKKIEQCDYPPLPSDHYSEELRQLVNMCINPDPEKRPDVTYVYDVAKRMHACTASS
UniProt P16234, 24-1089: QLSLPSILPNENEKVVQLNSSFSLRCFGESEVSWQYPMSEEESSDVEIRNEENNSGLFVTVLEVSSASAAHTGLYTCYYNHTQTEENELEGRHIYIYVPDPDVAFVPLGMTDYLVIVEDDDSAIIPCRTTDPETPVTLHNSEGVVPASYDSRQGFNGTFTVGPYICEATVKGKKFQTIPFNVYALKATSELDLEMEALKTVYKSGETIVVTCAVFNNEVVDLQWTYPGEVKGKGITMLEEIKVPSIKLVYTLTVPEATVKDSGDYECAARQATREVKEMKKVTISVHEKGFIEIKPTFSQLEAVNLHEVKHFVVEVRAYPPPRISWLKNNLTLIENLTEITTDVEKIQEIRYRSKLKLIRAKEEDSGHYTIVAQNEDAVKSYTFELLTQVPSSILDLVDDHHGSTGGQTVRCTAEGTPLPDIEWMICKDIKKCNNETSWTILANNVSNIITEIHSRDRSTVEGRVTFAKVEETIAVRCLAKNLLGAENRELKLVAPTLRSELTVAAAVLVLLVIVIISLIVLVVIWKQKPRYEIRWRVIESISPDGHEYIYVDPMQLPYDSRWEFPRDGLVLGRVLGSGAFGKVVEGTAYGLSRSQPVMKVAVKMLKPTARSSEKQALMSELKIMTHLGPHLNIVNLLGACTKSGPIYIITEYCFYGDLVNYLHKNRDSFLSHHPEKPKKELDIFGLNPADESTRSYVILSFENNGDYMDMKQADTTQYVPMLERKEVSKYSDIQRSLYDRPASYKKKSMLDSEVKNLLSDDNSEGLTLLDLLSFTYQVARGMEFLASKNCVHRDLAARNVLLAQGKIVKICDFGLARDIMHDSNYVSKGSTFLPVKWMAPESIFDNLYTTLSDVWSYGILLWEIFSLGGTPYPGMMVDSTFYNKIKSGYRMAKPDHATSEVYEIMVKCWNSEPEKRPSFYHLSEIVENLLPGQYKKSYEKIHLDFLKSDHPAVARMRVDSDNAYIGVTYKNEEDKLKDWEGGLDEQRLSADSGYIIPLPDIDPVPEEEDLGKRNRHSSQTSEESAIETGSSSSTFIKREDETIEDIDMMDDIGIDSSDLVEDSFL
UniProt P31749: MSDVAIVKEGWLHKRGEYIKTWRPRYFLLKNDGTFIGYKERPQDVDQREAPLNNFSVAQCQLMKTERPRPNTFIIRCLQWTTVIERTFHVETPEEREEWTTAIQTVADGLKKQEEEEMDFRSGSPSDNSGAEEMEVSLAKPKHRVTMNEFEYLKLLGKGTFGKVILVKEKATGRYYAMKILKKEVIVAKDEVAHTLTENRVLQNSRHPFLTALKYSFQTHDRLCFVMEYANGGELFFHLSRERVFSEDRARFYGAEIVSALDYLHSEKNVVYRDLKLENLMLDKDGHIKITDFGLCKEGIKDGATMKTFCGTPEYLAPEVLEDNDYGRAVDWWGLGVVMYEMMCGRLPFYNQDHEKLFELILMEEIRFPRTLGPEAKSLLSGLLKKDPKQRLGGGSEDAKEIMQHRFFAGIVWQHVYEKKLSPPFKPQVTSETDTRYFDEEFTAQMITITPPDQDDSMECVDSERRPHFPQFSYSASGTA
UniProt P54646: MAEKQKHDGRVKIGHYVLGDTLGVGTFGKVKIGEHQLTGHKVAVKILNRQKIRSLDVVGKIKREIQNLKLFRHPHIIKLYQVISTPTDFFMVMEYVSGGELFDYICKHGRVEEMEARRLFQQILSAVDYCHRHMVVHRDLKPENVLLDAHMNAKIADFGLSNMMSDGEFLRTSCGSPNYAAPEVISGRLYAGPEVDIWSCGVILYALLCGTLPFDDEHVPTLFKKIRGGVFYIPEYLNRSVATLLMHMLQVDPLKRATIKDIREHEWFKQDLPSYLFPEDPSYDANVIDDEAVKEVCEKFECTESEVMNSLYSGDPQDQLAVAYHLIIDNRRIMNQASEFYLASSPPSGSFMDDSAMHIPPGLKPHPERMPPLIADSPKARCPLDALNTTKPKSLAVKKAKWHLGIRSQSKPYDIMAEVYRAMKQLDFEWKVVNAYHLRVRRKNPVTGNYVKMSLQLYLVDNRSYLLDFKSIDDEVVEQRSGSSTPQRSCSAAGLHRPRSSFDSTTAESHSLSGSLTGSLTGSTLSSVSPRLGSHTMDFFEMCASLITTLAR
UniProt Q92630: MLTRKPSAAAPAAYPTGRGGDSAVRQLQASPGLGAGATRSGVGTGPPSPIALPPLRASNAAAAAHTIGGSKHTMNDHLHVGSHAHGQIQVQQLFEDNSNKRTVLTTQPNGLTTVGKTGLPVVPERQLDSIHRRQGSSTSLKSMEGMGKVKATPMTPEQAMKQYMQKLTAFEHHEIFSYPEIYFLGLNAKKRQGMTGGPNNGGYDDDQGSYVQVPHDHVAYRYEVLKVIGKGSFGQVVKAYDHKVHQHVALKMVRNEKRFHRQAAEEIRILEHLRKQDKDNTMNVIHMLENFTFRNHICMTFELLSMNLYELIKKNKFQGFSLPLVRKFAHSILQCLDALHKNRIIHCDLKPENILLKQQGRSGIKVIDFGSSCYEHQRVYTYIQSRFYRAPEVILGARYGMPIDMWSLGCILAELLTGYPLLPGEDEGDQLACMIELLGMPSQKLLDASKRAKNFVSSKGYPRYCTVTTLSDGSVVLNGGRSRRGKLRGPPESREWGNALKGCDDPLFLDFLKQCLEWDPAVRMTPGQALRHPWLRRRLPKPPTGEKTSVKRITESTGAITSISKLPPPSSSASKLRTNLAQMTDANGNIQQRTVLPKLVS
UniProt O75676: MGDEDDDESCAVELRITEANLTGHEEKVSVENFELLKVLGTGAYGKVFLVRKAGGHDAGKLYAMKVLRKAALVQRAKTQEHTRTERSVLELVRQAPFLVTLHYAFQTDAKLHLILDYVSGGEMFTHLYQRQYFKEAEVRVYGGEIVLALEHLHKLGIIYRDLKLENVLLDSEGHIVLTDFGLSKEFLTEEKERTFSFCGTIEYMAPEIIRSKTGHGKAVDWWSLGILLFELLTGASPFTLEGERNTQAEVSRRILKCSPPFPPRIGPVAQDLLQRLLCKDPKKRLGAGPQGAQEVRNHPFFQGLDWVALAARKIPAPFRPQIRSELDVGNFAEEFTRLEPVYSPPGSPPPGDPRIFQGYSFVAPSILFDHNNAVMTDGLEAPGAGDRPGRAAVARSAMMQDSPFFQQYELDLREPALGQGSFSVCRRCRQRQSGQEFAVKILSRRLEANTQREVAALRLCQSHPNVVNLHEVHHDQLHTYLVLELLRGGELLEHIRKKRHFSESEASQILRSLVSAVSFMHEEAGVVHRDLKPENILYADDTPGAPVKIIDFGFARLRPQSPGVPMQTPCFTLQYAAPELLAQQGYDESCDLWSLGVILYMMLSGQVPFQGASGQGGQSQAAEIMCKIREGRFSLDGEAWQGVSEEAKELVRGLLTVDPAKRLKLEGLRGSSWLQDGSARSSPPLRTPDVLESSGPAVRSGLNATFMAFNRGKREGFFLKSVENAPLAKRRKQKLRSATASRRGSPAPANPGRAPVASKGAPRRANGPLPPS
UniProt P49841: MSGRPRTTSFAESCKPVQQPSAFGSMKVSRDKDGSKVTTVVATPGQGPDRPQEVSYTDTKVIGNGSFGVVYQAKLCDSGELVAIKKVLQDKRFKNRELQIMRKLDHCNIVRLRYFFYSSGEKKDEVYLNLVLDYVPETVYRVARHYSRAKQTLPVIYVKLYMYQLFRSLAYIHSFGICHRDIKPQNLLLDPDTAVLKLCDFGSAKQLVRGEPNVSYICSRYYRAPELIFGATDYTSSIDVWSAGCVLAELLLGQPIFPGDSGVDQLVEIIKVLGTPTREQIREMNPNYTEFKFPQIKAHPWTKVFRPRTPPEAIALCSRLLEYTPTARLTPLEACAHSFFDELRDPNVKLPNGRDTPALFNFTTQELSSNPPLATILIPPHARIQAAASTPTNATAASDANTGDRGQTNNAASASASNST
UniProt Q9UHD2: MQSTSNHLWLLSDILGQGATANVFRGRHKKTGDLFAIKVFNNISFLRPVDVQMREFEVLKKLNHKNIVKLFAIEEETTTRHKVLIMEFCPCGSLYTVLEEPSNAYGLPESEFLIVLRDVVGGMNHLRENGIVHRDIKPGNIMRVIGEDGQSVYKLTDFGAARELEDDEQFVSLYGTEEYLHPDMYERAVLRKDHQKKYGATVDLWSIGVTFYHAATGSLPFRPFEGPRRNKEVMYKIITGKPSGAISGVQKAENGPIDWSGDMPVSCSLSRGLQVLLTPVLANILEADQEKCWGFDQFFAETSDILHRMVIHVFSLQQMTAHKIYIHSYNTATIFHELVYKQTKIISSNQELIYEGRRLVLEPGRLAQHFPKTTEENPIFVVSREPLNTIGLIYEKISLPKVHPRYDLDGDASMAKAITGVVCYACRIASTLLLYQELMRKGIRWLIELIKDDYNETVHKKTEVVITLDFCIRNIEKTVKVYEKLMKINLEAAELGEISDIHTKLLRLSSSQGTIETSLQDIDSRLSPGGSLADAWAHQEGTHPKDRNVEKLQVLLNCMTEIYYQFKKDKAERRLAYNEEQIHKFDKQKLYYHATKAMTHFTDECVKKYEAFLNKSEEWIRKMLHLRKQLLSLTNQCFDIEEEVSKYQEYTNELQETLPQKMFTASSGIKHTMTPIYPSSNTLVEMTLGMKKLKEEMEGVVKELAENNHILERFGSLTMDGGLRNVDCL

TAO1(h) = target: T2, TAO1(h) (Homo sapiens, UniProt Q7L7X3)
T2 construct: purchased Millipore
T2 sequence (Q7L7X3 1-1001): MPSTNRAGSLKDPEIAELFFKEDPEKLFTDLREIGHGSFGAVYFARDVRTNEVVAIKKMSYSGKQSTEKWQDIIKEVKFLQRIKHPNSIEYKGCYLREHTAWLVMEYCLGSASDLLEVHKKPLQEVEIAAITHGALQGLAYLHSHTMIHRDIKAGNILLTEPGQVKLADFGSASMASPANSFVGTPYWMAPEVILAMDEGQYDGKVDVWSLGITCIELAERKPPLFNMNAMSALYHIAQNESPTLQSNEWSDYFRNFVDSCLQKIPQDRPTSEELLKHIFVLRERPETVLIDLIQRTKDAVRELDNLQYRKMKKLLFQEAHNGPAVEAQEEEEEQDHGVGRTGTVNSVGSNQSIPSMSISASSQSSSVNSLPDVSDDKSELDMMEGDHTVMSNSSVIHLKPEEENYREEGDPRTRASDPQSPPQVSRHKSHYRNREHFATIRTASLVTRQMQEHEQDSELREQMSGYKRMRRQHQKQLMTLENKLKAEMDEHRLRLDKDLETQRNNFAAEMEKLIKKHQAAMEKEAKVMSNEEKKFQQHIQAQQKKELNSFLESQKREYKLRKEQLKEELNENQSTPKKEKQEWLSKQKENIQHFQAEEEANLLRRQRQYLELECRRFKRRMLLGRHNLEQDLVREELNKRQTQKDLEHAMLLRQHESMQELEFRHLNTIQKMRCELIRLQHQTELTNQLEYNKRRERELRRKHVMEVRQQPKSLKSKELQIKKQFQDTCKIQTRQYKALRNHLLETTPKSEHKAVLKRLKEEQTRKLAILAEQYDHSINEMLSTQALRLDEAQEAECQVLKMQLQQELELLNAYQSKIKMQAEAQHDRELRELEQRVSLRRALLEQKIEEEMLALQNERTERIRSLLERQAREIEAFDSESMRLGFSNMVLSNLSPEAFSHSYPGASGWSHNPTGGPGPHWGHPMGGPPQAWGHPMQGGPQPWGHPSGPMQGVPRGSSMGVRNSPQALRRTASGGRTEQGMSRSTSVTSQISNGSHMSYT
Outline: as §1

IRAK4(h) = target: T3, IRAK4(h) (Homo sapiens, UniProt Q9NWZ3)
T3 construct: purchased Millipore
Outline: as §1

NEK7(h) = target: T4, NEK7(h) (Homo sapiens, UniProt Q8TDX7)
T4 construct: purchased Millipore
Outline: as §1

Rsk2(h) = Rsk2(h) (Homo sapiens, UniProt P51812)
Outline: as §1

PDGFRα(h) = PDGFRα(h) (Homo sapiens, UniProt P16234)
Outline: as §1

PKBα(h) = PKBα(h) (Homo sapiens, UniProt P31749)
Outline: as §1

AMPKα2(h) = AMPKα2(h) (Homo sapiens, UniProt P54646)
Outline: as §1

DYRK2(h) = DYRK2(h) (Homo sapiens, UniProt Q92630)
Outline: as §1

MSK2(h) = target: T5, MSK2(h) (Homo sapiens, UniProt O75676)
T5 construct: purchased Millipore
Outline: as §1

CaMKIIδ(h) = CaMKIIδ(h) (Homo sapiens, UniProt Q13557)
Outline: as §1

GSK3β(h) = target: T6, GSK3β(h) (Homo sapiens, UniProt P49841)
T6 construct: purchased Millipore
Outline: as §1

TBK1(h) = target: T7, TBK1(h) (Homo sapiens, UniProt Q9UHD2)
T7 construct: purchased Millipore
Outline: as §1

Src(T341M)(h) = target: T8, Src(T341M)(h) (Homo sapiens, UniProt P12931, T341M)
T8 construct: purchased Millipore
Outline: as §1

Compound	% activity (TAO3(h)) [%]	% activity (TAO1(h)) [%]	% activity (IRAK4(h)) [%]	% activity (NEK7(h)) [%]	% activity (Rsk2(h)) [%]	% activity (PDGFRα(h)) [%]	% activity (PKBα(h)) [%]	% activity (AMPKα2(h)) [%]	% activity (DYRK2(h)) [%]	% activity (MSK2(h)) [%]	% activity (CaMKIIδ(h)) [%]	% activity (GSK3β(h)) [%]	% activity (TBK1(h)) [%]	% activity (Src(T341M)(h)) [%]
YARAAARQARAKALNRQLGVA (Mammal) [MMI-0200]	102	105	–	–	–	–	–	–	–	–	–	–	–	–
CC(C)C[C@H](NC(=O)[C@H](C)NC(=O)[C@H](CCCCN)NC(=O)[C@H](C)NC(=O)[C@H](CCCNC(=N)N)NC(=O)[C@H](C)NC(=O)[C@H](CCC(N)=O)NC(=O)[C@H](CCCNC(=N)N)NC(=O)[C@H](C)NC(=O)[C@H](C)NC(=O)[C@H](C)NC(=O)[C@H](CCCNC(=N)N)NC(=O)[C@H](C)NC(=O)[C@@H](N)Cc1ccc(O)cc1)C(=O)N[C@@H](C)C(=O)N[C@@H](CCCNC(=N)N)C(=O)N[C@@H](CCC(N)=O)C(=O)N[C@@H](CC(C)C)C(=O)NCC(=O)N[C@H](C(=O)N[C@@H](C)C(=O)N[C@@H](C)C(=O)O)C(C)C [MMI-0100]	–	–	100	97	65	104	140	121	99	105	89	113	106	98

— US20150258192A1, “COMPOSITIONS AND METHODS FOR PREVENTING OR TREATING CHRONIC LUNG ALLOGRAFT DYSFUNCTION (CLAD) AND IDIOPATHIC PULMONARY FIBROSIS (IPF)” (priority 2014, published 2015)
